The source of these data is US3983105A, “Penicillins” (Bayer Aktiengesellschaft, priority 1971, dated 1976).

The data set can be described thus: in vivo. The settings on record: mouse, intravenous injection into the vein of the tail.

`CC1(C)S[C@@H]2[C@H](NC(=O)[C@H](NC(=O)N3CCN(S(C)(=O)=O)C3=O)c3ccccc3)C(=O)N2[C@H]1C(=O)O` [Example 4, Sodium D(-)-α-[(3-methylsulphonyl-imidazolidin-2-on-1-yl)-carbonylamino]-benzylpencillin] yielded a 50% lethal dose (LD50) of 3000 mg/kg.

The term LD50 denotes the dose at which mortality reaches 50%. The low end stands for greater toxicity, the high end for lower toxicity.
